Test results published in ChEMBL document CHEMBL1157807, “NO-releasing esters show carbonic anhydrase inhibitory action against human isoforms I and II” (Bioorg Med Chem, 2010).

Molecular target: Carbonic anhydrase 2 (Homo sapiens, UniProt P00918)
Assay: Inhibition of human carbonic anhydrase 2 esterase activity by spectrophotometry
Conditions: read-out: I50
How it was run: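 Enzyme purified from human erythrocytes. Esterase activity is followed as 4-nitrophenylacetate conversion to 4-nitrophenylate by absorbance at 348 nm over 3 min at 25 °C, in Tris–SO4 buffer pH 7.4. A reference cuvette lacks enzyme. Each inhibitor concentration is run in triplicate, with uninhibited control activity set to 100%. IC50 is read from %activity vs [inhibitor] plots.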

O=[N+]([O-])O[C@H]1C[C@H](O[N+](=O)[O-])[C@@H](O)C[C@@H]1O
IC50: 86.3 µM
